# Key:
# [1] = in vivo; conditions: mouse, po
# Protocol: The evaluation test was carried out using ICR female mice (i.e., body weight=18 to 22 g, 10 mice in each group).
# (§1) The sample compounds listed in Table 3 were dispersed in 2.0% carboxymethyl cellulose/physiological saline solution and orally administered in a given amount by a peroral syringe. After the administration, the toxic conditions were observed and the oral acute toxicity (LD50) was calculated from the death number according to a Van Der Werden method.
# [2] = in vivo; conditions: mouse, po; remark: listed apart in the source
# Protocol: The evaluation test was carried out using ddY male mice (i.e., body weight =18 to 22 g, 10 mice in each group).
# as §1, with “compound” for “compounds”, “2 was” for “3 were”, “0.5%” for “2.0%”, “number during 7 days of observation” for “number”, “Litchfield Wilcoxon” for “Van Der Werden”
# The results are shown in Table 2, in which the compounds are shown by R in the general formula (I). The compound represented by R=H in Table 2 is a known reference compound, i.e., N-(2,3-xylyl)anthranilic acid.
compound,measurement,setting,value
"Cc1cccc(Nc2ccccc2C(=O)O)c1C [N-(2,3-xylyl)anthranilic acid, reference compound]",LD50,[1],1250 mg/kg
same,LD50 at 168 h,[2],1400 mg/kg
